Assay [1] concerns Ba/F3 cells of EGFR-del19. As to the kind of experiment: Drug sensitivity screening at 100 nM, Ba/F3 EGFR-del19. The format is cell-based. Here is the method: (§1) After the incubation, cell viability was measured using CellTiter-Glo assay. The relative cell viability was calculated as a ratio of each value to that of the DMSO control.
In assay [2] the test system is Ba/F3 cells of EGFR-T790M/del19. As to the kind of experiment: Drug sensitivity screening at 100 nM, Ba/F3 EGFR-T790M/del19. The assay is classed as cell-based. As to conditions: Mus musculus, BaF3, 72 h, read-out: Relative cell viability (ratio to DMSO control), del19/T790M. As for the experimental part:
as §1

“And” between values parts separate entries of the source, which are not always exact repeats. Identical values can stand only once.

Regarding `CNC(=O)c1cc(Oc2ccc(NC(=O)Nc3ccc(Cl)c(C(F)(F)F)c3)cc2)ccn1` [Sorafenib, sorafenib], the “Relative cell viability (% of DMSO control) in del19 Ba/F3 cells” value in assay [1] (0.1 µM) is 137.444 and 117.128 and 107.552. Further, the viability at 0.1 µM in assay [1] (Mus musculus, BaF3, 72 h, read-out: Relative cell viability (ratio to DMSO control), del19) is 121%; in assay [2], 106%.

Source of the values: publication PMC5355811 (Nature Communications, 2017).
